Molecular target: Type-1 angiotensin II receptor B (Rattus norvegicus, UniProt P29089)
Test: Binding affinity for rat angiotensin II receptor, type 1

By UniProt entry, the sequences of proteins in these tests, tags left out.
UniProt P29089, whole entry: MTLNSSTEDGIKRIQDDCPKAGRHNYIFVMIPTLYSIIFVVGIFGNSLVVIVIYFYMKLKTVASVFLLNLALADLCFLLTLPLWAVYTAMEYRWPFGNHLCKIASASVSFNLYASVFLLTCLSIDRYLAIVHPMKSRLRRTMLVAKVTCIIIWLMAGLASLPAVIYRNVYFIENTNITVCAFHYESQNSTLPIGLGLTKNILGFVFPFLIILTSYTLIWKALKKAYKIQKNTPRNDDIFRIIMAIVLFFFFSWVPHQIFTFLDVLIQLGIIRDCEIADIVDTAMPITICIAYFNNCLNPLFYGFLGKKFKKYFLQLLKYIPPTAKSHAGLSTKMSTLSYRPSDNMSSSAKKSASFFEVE

- IC50: 11 nM
Compound: CCCc1nc2c(C)cc(C)nc2n1Cc1ccc(-c2c(C(=O)O)cnc3ccccc23)cc1

— ChEMBL document CHEMBL1148280, “Design, synthesis, structural studies, biological evaluation, and computational simulations of novel potent AT(1) angiotensin II receptor antagonists based on the 4-phenylquinoline structure” (J Med Chem, 2004)
